# Data taken from PubChem BioAssay AID652048 (National Center for Advancing Translational Sciences (NCATS), 2013).
# Chains of the proteins cited; added tags and fusions are not shown.
# UniProt P35462, whole entry, looked up: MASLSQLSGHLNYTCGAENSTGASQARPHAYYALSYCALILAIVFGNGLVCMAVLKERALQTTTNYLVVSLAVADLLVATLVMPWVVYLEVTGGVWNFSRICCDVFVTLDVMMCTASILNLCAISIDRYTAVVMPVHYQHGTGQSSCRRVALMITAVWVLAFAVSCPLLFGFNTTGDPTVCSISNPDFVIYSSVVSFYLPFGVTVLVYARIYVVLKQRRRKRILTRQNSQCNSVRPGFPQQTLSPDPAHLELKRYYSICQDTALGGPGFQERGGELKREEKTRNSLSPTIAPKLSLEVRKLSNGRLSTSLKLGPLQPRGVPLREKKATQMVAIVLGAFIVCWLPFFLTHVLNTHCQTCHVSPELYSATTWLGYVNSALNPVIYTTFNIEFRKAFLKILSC
# Values joined by “and” are separate entries in the source; they are usually repeats but may differ in a detail not shown here. Equal values may be shown once. The list shows a part of the results, in another mix than the full data. Active and inactive are the calls of the source. Rule as the data show it: active = max activation above about 30%; inactive = the rest.
# Target: D(3) dopamine receptor (Homo sapiens) (UniProt P35462)
# Assay: qHTS of D3 Dopamine Receptor Agonist: qHTS; also: 0% is about no effect
# Details: D3R DiscoveRx beta-arrestin cells, luminescence, 90 min; hits give high values
# From the text: D3 DARs represent a very important target for the treatment of several neuropsychiatric disorders. Indeed, one of the most promising therapeutic applications for the D3 DAR is in the area of addiction and related disorders. […] These findings have been observed with a number of addictive substances including cocaine, amphetamine, nicotine, and alcohol. […] Antagonism of the D3 DAR may also be therapeutic in the treatment of schizophrenia or psychosis. […] Since the D3 DAR is expressed in areas of the CNS associated with the control of mood and emotion, it has been hypothesized that selective antagonism of the D3 DAR may be effective in treating psychosis without inducing the motor side effects typically seen with D2 DAR antagonists.
# This part of the project aims to discover novel agonist.
# NIH Chemical Genomics Center [NCGC]
# NIH Molecular Libraries Probe Centers Network [MLPCN]
# Assay Submitter (PI): David Sibley, NINDS
# Freshly passaged cells are plated in 1536 well white, solid bottom plates at a density of 1500 cells/well in 3microl of complete media. After an overnight incubation at 37 degrees C in 5% CO2, cells are loaded with 23nl of test compound from the compound library (as well as dopamine controls) using a 1536 pintool and incubated at 37 degrees C for 90 minutes. Two microliters of DiscoveRx reagent is then added to all cells, and they are incubated for an additional 30 - 60 minutes at room temperature. Following incubation, luminescence is measured on a ViewLux CCD-based luminometer reader using a 20 sec exposure time.
row,Structure (SMILES),max activation
1,C[C@H]1OP(=O)(Oc2ccccc2)[C@H](O)[C@H](O)[C@H]1N=[N+]=[N-] (stereo partly specified),inactive: 2.12%
2,Cc1cc([N+](=O)[O-])cc([N+](=O)[O-])c1O,inactive: 5.68%
3,CN(C(=O)Cc1ccccc1)[C@H]1CC[C@@]2(CCCO2)C[C@@H]1N1CCCC1,inactive: -10.8%
4,COc1ccc(N)c([N+](=O)[O-])c1[N+](=O)[O-],inactive: 1.7%
5,Nc1ccc(CCCCOc2ccccc2)cc1,inactive: -13.8%
6,O=P(Nc1ccccn1)(c1ccc(Br)cc1)c1ccc(Br)cc1,inactive: -1.03%
7,CN(C)C1(CNC(=O)c2ccc(Cl)c(S(N)(=O)=O)c2)CCCCC1,inactive: -2.65%
8,c1nnnn1CCn1cnnn1,inactive: -0.278%
9,CC(C)C(=O)NC(Sc1ccccc1)C(Cl)(Cl)Cl (stereo unspecified),inactive: -23.2%
10,O=P(Nc1nccs1)(c1ccccc1)c1ccccc1,inactive: 6.7%
11,CC(=O)Nc1ccc([As](=O)(O)O)c(O)c1,inactive: 6.44%
12,CC(=O)Nc1ccc(Oc2c([N+](=O)[O-])cc([N+](=O)[O-])cc2[N+](=O)[O-])cc1,inactive: -3.5%
13,CC(=O)c1ccc(N2CC2c2ccncc2)cc1 (stereo unspecified),inactive: 4.39%
14,N#C/C(=C\c1ccc(N(CCBr)CCBr)cc1)C(N)=O,inactive: 2.43%
15,COC(=O)C1(C)COP(=O)(NCc2ccccc2)OC1 (stereo unspecified),inactive: 6.69%
16,Cc1ccccc1CN(C)C(=O)COC(=O)C(O)(c1ccccc1)c1ccccc1,inactive: 8.37%
17,C[C@H]1OP(=O)(Oc2ccccc2)C[C@@H]2O[C@@H]21 (stereo partly specified),inactive: 0.476%
18,C[C@@H]1C=CCP(=O)(Oc2ccccc2)O1 (stereo partly specified),active: 43.7%
19,CCc1cc(O)c([N+](=O)[O-])c(C)c1[N+](=O)[O-],inactive: 5.51%
20,CC(C)(C)C(=O)NC(Sc1ccccc1)C(Cl)(Cl)Cl (stereo unspecified),inactive: -1.84%
21,O=P1(Nc2nc3ccc(Cl)cc3s2)COc2ccccc2O1 (stereo unspecified),inactive: 1.49%

row,Structure (SMILES),max activation
1,CCOc1ccc(C2=NCC(CBr)S2)cc1 (stereo unspecified),inactive: -1.22%
2,CC(NC(=O)COC(=O)C(O)(c1ccccc1)c1ccccc1)c1ccccc1 (stereo unspecified),inactive: 0.268%
3,Cc1ccccc1OP(=O)(Nc1ccccn1)Oc1ccccc1C,inactive: 6.92%
4,O=c1c2cc([N+](=O)[O-])ccc2[nH]c2c([N+](=O)[O-])cc([N+](=O)[O-])cc12,inactive: -11.7%
5,CN(C)C(=O)Oc1noc2ccccc12,inactive: 8.35%
6,COC(=O)c1cc2c(s1)N=C(c1ccccc1)N(C)P2(=O)N1CCOCC1 (stereo unspecified),inactive: 7.02%
7,Cc1ccc(OP(=O)(Nc2ccccn2)Oc2ccc(C)cc2)cc1,inactive: 10.4%
8,CC(=O)NC(SC(=S)N(CC(C)C)CC(C)C)C(Cl)(Cl)Cl (stereo unspecified),inactive: -0.928%
9,O=C(OC1CN2CCC1CC2)c1ccccc1 (stereo unspecified),inactive: 22.6% and inactive: -5.42%
10,CCC(=O)N1C2C3N(C(=O)CC)C1C1N(C(=O)CC)C(C(N1C(=O)CC)N3C(=O)CC)N2C(=O)CC,inactive: 3.05%
11,O=P1(N(CCCl)CCCl)OCCC2CCCCN21 (stereo unspecified),inactive: -14.5%
12,CCNC(=S)/N=C(\N)N[N+](=O)[O-],inactive: -5.01%
13,O=C(NC1CCS(=O)(=O)C1)NP(=S)(Oc1ccccc1)Oc1ccccc1 (stereo unspecified),inactive: 0.448%
14,c1ccc(-c2nn[nH]n2)c(-c2nn[nH]n2)c1,inactive: 10.6%
15,Cc1ccc(NP(=O)(Oc2cccc(C)c2)Oc2cccc(C)c2)nc1,active: 30%
16,CCN(N=Nc1nonc1N)c1nonc1N,inactive: -9.92%
17,Nc1cccc2ccc([As](=O)(O)O)cc12,inactive: 2.33%
18,Cc1cc(SC(NC(=O)c2ccc(F)cc2)C(Cl)(Cl)Cl)ncn1 (stereo unspecified),inactive: 1.8%
19,CCOP(=O)(Nc1ccccc1)OCC,inactive: 3.64%
20,Cc1ccc(NP(=O)(Oc2ccccc2F)Oc2ccccc2F)nc1,inactive: -7.72%
21,CN(C(=O)Cc1ccc(Cl)c(Cl)c1)[C@H]1CCCC[C@@H]1N1CCCC1,inactive: -3.49%

row,Structure (SMILES),max activation
1,CC(=O)Nc1ccc([As](=O)(O)O)cc1,inactive: 3.85%
2,O=C(O)c1ccccc1[As](=O)(O)O,inactive: 27.4%
3,CCCC1OP(N)(=O)OCC1CC (stereo unspecified),inactive: -0.322%
4,O=P(Nc1nc2ccc(Cl)cc2s1)(c1ccccc1)c1ccccc1,inactive: 11.3%
5,CN(C)P(=O)(N(C)C)n1c(Nc2ccccc2)nnc1-c1ccccc1,inactive: -0.632%
6,O=[N+]([O-])C1C(O)C(O)C([N+](=O)[O-])C(O)C1O (stereo unspecified),inactive: 5.15%
7,Nc1cc(N)c2nonc2c1[N+](=O)[O-],inactive: -0.178%
8,CC(C)CC(=O)NC(Sc1ccc(Cl)cc1)C(Cl)(Cl)Cl (stereo unspecified),inactive: -7.42%
9,Oc1ccccc1CNc1ccccn1,inactive: 2.23%
10,O=C(NC(Sc1ccncn1)C(Cl)(Cl)Cl)c1ccccc1 (stereo unspecified),inactive: -16.6%
11,COc1ccccc1OP(=O)(Nc1ccc(C)cn1)Oc1ccccc1OC,inactive: 4.54%
12,Cc1ccc(OP(=O)(Nc2nccs2)Oc2ccc(C)cc2)cc1,inactive: 2.43%
13,CN1CCCC(OC(=O)C(c2ccccc2)c2ccccc2)C1 (stereo unspecified),inactive: -2.47%
14,CCNC(C)Cc1ccc2c(c1)OCO2 (stereo unspecified),inactive: -18.8%
15,Clc1ccc(Cl)c(NC2=NCC(CBr)S2)c1 (stereo unspecified),inactive: 5.39%
16,NC(=O)c1cc([N+](=O)[O-])cc([N+](=O)[O-])c1N,inactive: 3.46%
17,CN(C(=O)Cc1ccc(Cl)c(Cl)c1)[C@H]1CCCC[C@H]1N1CCCC1,inactive: 0.329%
18,Cc1ccc(N/C(=N/P(=O)(N2CCOCC2)N2CCOCC2)N2CCOCC2)cc1,inactive: 4.02%
19,CC(C)c1nc(Nc2ccccc2)n(P(=O)(N(C)C)N(C)C)n1,inactive: -1.73%
20,CC(C)=N/N=C(\N)N[N+](=O)[O-],inactive: 8.54%
21,CN(C)C(=O)OCCc1n(C)cc[n+]1C,inactive: -0.296%

row,Structure (SMILES),max activation
1,CC1CCN(C(=O)Oc2c(Cl)cc(Cl)c3cccnc23)CC1,inactive: 5.72%
2,c1cc(-c2nn[nH]n2)ccc1-c1nn[nH]n1,inactive: -11.4%
3,Nc1ccc([As](=O)(O)c2ccc(N)cc2)cc1,inactive: 9.51%
4,C[N+]1=C2C=CC=CC=C2SC12C([N+](=O)[O-])=CC([N+](=O)[O-])=C[C-]2[N+](=O)[O-] (stereo unspecified),inactive: -26.9%
5,CCN(/C(=N/P(=O)(N1CCOCC1)N1CCOCC1)N1CCOCC1)c1ccc(OC)cc1,inactive: -1.74%
6,O=[N+]([O-])c1cccc2n[nH]nc12,inactive: -6.41%
7,CC(=O)N1C2C3N(C(C)=O)C1C1N(C(C)=O)C(C(N1C(C)=O)N3C(C)=O)N2C(C)=O,inactive: -1.02%
8,Cc1ccc(NP(=O)(Oc2ccccc2)Oc2ccccc2)nc1,inactive: -4.97%
9,CCc1nc2c(n1)c1c(non1O)c1c2no[n+]1[O-],inactive: -1.77%
10,O=[N+]([O-])c1cc([N+](=O)[O-])c(CCNc2ccccc2)c([N+](=O)[O-])c1,inactive: -3.84%
11,COc1ccc(C2=NCC(CBr)S2)cc1 (stereo unspecified),inactive: 2.21%
12,COC(=O)C1(C)COP(=O)(Nc2ccccc2)OC1 (stereo unspecified),inactive: 1.88%
13,O=[N+]([O-])c1cccc(NC2=NCC(CBr)S2)c1 (stereo unspecified),inactive: 1.27%
14,O=C(O)CNc1ccc([As](=O)(O)O)cc1,inactive: -0.393%
15,CC(C)(C)C(=O)NC(Sc1ccncn1)C(Cl)(Cl)Cl (stereo unspecified),inactive: -3.97%
16,O=[N+]([O-])c1ncn(CCn2ncnc2[N+](=O)[O-])n1,inactive: 1.37%
17,O=C(Nc1cc([As](=O)(O)O)ccc1O)c1ccccc1,inactive: -0.851%
18,O=P1(N(CCCl)CCCl)OCCCS1 (stereo unspecified),inactive: -2.1%
